Measured values as given in BindingDB's records for doi:10.1016/j.bmcl.2008.03.051 (Universita Degli Studi Di Firenze, 2008).

The chains behind the UniProt entries cited, without tags or fusion partners. Where a name states a change or a piece, a line headed by the entry shows the natural chain unless it says otherwise.
UniProt P35218: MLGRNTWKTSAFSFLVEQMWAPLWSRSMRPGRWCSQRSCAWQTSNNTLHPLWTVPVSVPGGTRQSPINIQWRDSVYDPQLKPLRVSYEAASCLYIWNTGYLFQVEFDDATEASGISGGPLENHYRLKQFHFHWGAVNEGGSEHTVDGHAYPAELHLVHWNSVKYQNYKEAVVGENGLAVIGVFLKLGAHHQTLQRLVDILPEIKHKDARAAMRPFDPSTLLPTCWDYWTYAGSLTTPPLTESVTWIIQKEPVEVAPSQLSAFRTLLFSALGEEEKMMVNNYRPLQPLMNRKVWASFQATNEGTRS
UniProt P43166: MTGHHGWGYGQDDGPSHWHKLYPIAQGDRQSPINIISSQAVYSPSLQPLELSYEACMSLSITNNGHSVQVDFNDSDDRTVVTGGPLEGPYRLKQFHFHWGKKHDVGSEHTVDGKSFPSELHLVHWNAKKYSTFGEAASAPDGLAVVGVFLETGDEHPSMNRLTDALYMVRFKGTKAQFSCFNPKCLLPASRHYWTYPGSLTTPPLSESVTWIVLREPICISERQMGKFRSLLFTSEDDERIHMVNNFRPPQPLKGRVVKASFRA

Legend:
[1] = molecular target: Carbonic anhydrase 5A, mitochondrial (Homo sapiens, UniProt P35218)
[2] = molecular target: Carbonic anhydrase 7 (Homo sapiens, UniProt P43166)

NS(=O)(=O)c1cc(C(=O)O)c(NCc2ccco2)cc1Cl [4-chloro-2-[(furan-2-ylmethyl)amino]-5-sulfamoylbenzoic acid]
Ki [1]: 499 nM
Ki [2]: 513 nM
